AlphaSeq binding of Ab-14 light chain variants to a spike HR2 peptide

The measurements come from Engelhart et al. 2022 (doi:10.1038/s41597-022-01779-4) through the FLAb antibody collection.

Antigen: PDVDLGDISGINAS, a 14-residue peptide of the SARS-CoV-2 spike HR2 region.

Parent scFv Ab-14: VH joined to VL by three GGGGS repeats. Changes lie in the light chain CDRs alone.
VH: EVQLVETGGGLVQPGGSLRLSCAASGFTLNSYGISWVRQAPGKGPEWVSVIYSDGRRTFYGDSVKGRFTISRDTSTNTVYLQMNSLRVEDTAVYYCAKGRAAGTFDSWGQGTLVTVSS
VL: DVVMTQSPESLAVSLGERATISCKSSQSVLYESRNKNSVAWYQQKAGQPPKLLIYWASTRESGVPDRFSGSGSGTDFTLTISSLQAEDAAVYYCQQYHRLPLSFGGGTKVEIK

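The parent was found by panning a naive human phage display library on the peptide. The library (AAYL50) carries one to three amino acid substitutions per variant, with no insertions or deletions. The assay is AlphaSeq: two haploid yeast populations carry antibody and antigen on their surface. The frequency of each diploid, read from paired DNA barcodes, reflects how well the two displayed proteins bind. Scores were corrected for input abundance and mapped to Kd with protein pairs of known affinity run in the same pool. The assay was run in three technical replicates.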

The parent's light chain CDRs are KSSQSVLYESRNKNSVA, WASTRES, QQYHRLPLS; each variant's own CDRs replace them letter for letter. Scale: log10 of Kd in nM, estimated from mating counts; low values are strong binders. A mean of the replicates is given; it leaves out those without a signal. A pair that was not seen in that replicate is written "n.d."; this usually means weak binding, but a binder can also be missed. Entries are sorted by rising average, undetected variants last. As a blank, each scFv also met three strains without target: over library AAYL50, 18% of these pairings were detected, typically at 4.19 and seldom below 2.99. For reference, the parent read 0.65 as the reference entry and 1.68 as a member of this library.

CDR-L1 | CDR-L2 | CDR-L3 | replicates, log10 nM | log10 Kd (nM), mean
KSSQSVLYESENKNSVA | WASTRES | QQYHVLPLS | 0.28 0.52 0.46 | 0.42
KSSQSVHQESREKNSVA | WASTRES | QQYHRLPLS | 0.48 0.67 0.57 | 0.57
KSSQSVLYEGRNKNSVA | WASTRES | QQYHRYPLF | 0.52 0.81 0.61 | 0.64
KSSQSTLVESRNKNSVA | WASTRES | QQYHHLPLS | 0.77 1.07 0.84 | 0.89
KSSQSILYESYNKNSVA | WASTRES | QQYYRLPLS | 0.72 1.09 0.92 | 0.91
KSSQSVLYESRNKNSVA | WASTRES | QQPHRLPTL | 0.86 1.02 0.89 | 0.92
KYSQQVLYESRNKQSVA | WASTRES | QQYHRLPLS | 0.96 0.98 1.07 | 1.00
KSSQSVFYESRNKNSVA | WASTRES | QEYHRMPLS | 0.97 1.10 1.05 | 1.04
KSSQSVLYESRNKNSVA | WAQTRES | QQYPRLFLS | 1.05 1.29 1.27 | 1.20
SSSQSTLYESRNKNSVA | WATTRES | QQYHRLPLS | 1.15 1.26 1.27 | 1.23
KSSISKLYESRNKNSVA | WASTREW | QQYHRLPLS | 1.21 1.15 1.44 | 1.27
KSSQGVGYESRNKNSVA | WASTRES | QQYHRVPLS | 1.34 1.48 1.51 | 1.44
KSSQSVLHESNNKNSVA | WASTRES | QKYHRLPLS | 1.52 1.34 1.71 | 1.53
KSSHSVLYGSRNKNSVA | WASTRES | QQYHRLPIS | 1.56 1.43 1.78 | 1.59
KSSQSVSYESRNKNSVA | WASTRES | EQYWRLPLS | 1.63 2.01 1.49 | 1.71
KLSQSVLYEHRNKNSVA | WASTRYS | QQYHRLPLS | 1.86 1.44 1.92 | 1.74
KSSQSVLYESRFKNSVA | WAYTRES | QQYHRLPLS | 1.82 1.62 2.46 | 1.97
KSSQSVLYESRNKNSVA | WARTRES | QQYHRYCLS | 2.68 2.64 2.62 | 2.64
KSSQSVLYESRNKNSVA | WASMRES | SQYHSLPLS | 2.67 n.d. n.d. | 2.67
KSSHSVLYEERNKNSVA | WASTRES | QWYHRLPLS | 3.50 2.27 2.79 | 2.85
KSSQSVLYESRNKNSEA | WAVTRES | QQYMRLPLS | n.d. 3.14 n.d. | 3.14
KSSQSVLYESRNKDSVA | WASTRES | QQYHRLHLS | 2.71 2.85 4.60 | 3.39
KSSQSVLYESRNKNSVA | WASTREI | QQYPILPLS | 3.48 n.d. n.d. | 3.48
KSSQSVLYESRNKNSHA | WASTREH | QKYHRLPLS | 3.86 3.56 n.d. | 3.71
KSSQSVSEESRNKNSVA | WASDRES | QQYHRLPLS | 3.94 3.63 n.d. | 3.79
KSSQSVLYESRNKNSVA | WASTRDK | QCYHRLPLS | 3.61 n.d. 4.03 | 3.82
KSNQSVLYESRNKESVA | WASTRER | QQYHRLPLS | 3.89 n.d. n.d. | 3.89
KSSQSWLYESRNKNSVA | WARTRES | QQYHRLPLR | 3.67 3.61 4.54 | 3.94
KLSQSVLSESRNKNSVA | KASTRES | QQYHRLPLS | 4.06 n.d. n.d. | 4.06
KSTQSVLYESRVKNSVA | WASTRES | QQYHRLYLS | 3.45 3.58 5.50 | 4.18
KSSQSVLYESRNKNSVA | WISTQES | QLYHRLPLS | n.d. 4.23 n.d. | 4.23
KSSQSVLYEANNKNSVA | WASTRES | QQYHRLPAS | n.d. 4.48 n.d. | 4.48
KSSQSVLYESRNKNSVA | DAPTRES | QQYARLPLS | 5.97 3.17 n.d. | 4.57
KSSQSVLYESRNKNSAA | WASTREF | QQYGRLPLS | n.d. 4.65 n.d. | 4.65
KSSQSVLYEPRNKNIVA | WAQTRES | QQYHRLPLS | n.d. 4.78 n.d. | 4.78
KSSQSVLYESREKNSPA | WASTRES | QQYRRLPLS | 5.38 5.00 n.d. | 5.19
KSSQSVLYESRNKNEVV | WASTRYS | QQYHRLPLS | n.d. n.d. n.d. | n.d.
KSSQSVLYESRNKNIVA | WASTRES | QQYHRPFLS | n.d. n.d. n.d. | n.d.
KSSQEVSYESRNKNSVA | WASTRES | QQYQRLPLS | n.d. n.d. n.d. | n.d.
KSSWSVLYESRNKNSVA | WASTQES | QQYHRLPLP | n.d. n.d. n.d. | n.d.
KSSQSVLYESRNKNSFA | WASTREF | QQYHRLPLS | n.d. n.d. n.d. | n.d.
KSSQSVLYESRNKNSTA | WACTRES | QQYHRLTLS | n.d. n.d. n.d. | n.d.
KSSQSVLYESWNKNSVA | LASTRES | QQYHRQPLS | n.d. n.d. n.d. | n.d.
KSSQSVLYESRNKNSVA | WASTRES | RQYYRHPLS | n.d. n.d. n.d. | n.d.

From the list, the first 6 with no signal in any replicate:

CDR-L1 | CDR-L2 | CDR-L3 | replicates, log10 nM | log10 Kd (nM), mean
KSSQSVLYESRNKNEVV | WASTRYS | QQYHRLPLS | n.d. n.d. n.d. | n.d.
KSSQSVLYESRNKNIVA | WASTRES | QQYHRPFLS | n.d. n.d. n.d. | n.d.
KSSQEVSYESRNKNSVA | WASTRES | QQYQRLPLS | n.d. n.d. n.d. | n.d.
KSSWSVLYESRNKNSVA | WASTQES | QQYHRLPLP | n.d. n.d. n.d. | n.d.
KSSQSVLYESRNKNSFA | WASTREF | QQYHRLPLS | n.d. n.d. n.d. | n.d.
KSSQSVLYESRNKNSTA | WACTRES | QQYHRLTLS | n.d. n.d. n.d. | n.d.